# Yeast mating assay 1: variants of the scFv Ab-14

Binding partner: SARS-CoV-2 spike HR2 peptide, sequence PDVDLGDISGINAS.

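The starting antibody came from a phage panning campaign against this peptide. In library AAYL50, one, two or three CDR residues were substituted; doubles and triples were drawn at random. The scFvs were displayed on barcoded MATa yeast, the peptide on MATalpha yeast. The frequency of each diploid, read from paired DNA barcodes, reflects how well the two displayed proteins bind. Scores were corrected for input abundance and mapped to Kd with protein pairs of known affinity run in the same pool. The assay was run in three technical replicates.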

Parent scFv Ab-14: VH joined to VL by a (GGGGS)3 linker. Changes lie in the light chain CDRs alone.
VH: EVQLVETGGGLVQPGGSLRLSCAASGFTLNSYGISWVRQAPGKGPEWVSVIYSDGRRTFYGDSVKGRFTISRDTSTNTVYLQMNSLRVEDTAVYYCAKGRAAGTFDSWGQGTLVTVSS
VL: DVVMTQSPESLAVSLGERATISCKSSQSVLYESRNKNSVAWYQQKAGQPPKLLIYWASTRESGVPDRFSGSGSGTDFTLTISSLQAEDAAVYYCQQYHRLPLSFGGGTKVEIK

Sequences are complete VL domains. These are single substitutions, in order of position. Values are log10 of the apparent Kd in nM; lower means stronger binding. A mean of the replicates is given; it leaves out those without a signal. "nd" marks a missing value. The strain was present, yet no cells mated with the target were sequenced in any replicate, which points to weak or no binding. Three control strains display no target. For library AAYL50, 18% of the pairings with them gave a signal, with a median of 4.19 and one signal in twenty below 2.99, so weak values seen in few replicates may be background. Parent in this assay: reference entry 0.65, copy in this library 1.68.

VL	mean, log10 nM	replicates with signal
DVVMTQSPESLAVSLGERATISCKSSRSVLYESRNKNSVAWYQQKAGQPPKLLIYWASTRESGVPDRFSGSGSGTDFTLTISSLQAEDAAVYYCQQYHRLPLSFGGGTKVEIK	1.27	3/3
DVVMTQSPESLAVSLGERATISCKSSPSVLYESRNKNSVAWYQQKAGQPPKLLIYWASTRESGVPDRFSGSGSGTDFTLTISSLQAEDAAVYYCQQYHRLPLSFGGGTKVEIK	2.48	3/3
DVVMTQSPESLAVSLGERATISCKSSASVLYESRNKNSVAWYQQKAGQPPKLLIYWASTRESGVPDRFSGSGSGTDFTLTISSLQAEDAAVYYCQQYHRLPLSFGGGTKVEIK	2.44	3/3
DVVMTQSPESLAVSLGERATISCKSSYSVLYESRNKNSVAWYQQKAGQPPKLLIYWASTRESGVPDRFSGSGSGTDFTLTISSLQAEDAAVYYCQQYHRLPLSFGGGTKVEIK	3.74	2/3
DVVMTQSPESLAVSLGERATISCKSSVSVLYESRNKNSVAWYQQKAGQPPKLLIYWASTRESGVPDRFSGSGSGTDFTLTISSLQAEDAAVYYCQQYHRLPLSFGGGTKVEIK	0.83	3/3
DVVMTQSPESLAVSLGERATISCKSSMSVLYESRNKNSVAWYQQKAGQPPKLLIYWASTRESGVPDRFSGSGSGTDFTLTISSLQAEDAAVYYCQQYHRLPLSFGGGTKVEIK	1.00	3/3
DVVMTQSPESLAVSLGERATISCKSSGSVLYESRNKNSVAWYQQKAGQPPKLLIYWASTRESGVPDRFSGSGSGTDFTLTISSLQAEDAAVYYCQQYHRLPLSFGGGTKVEIK	0.31	3/3
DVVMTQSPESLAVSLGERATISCKSSDSVLYESRNKNSVAWYQQKAGQPPKLLIYWASTRESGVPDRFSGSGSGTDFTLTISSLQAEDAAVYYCQQYHRLPLSFGGGTKVEIK	1.58	3/3
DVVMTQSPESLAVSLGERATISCKSSFSVLYESRNKNSVAWYQQKAGQPPKLLIYWASTRESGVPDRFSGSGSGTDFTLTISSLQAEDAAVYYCQQYHRLPLSFGGGTKVEIK	nd	0/3
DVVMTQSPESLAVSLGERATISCKSSISVLYESRNKNSVAWYQQKAGQPPKLLIYWASTRESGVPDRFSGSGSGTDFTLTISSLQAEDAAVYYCQQYHRLPLSFGGGTKVEIK	2.82	3/3
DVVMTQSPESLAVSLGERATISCKSSLSVLYESRNKNSVAWYQQKAGQPPKLLIYWASTRESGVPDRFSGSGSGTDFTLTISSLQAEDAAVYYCQQYHRLPLSFGGGTKVEIK	1.06	3/3
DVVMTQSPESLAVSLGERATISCKSSQQVLYESRNKNSVAWYQQKAGQPPKLLIYWASTRESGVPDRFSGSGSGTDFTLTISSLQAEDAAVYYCQQYHRLPLSFGGGTKVEIK	1.03	3/3
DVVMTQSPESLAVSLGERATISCKSSQKVLYESRNKNSVAWYQQKAGQPPKLLIYWASTRESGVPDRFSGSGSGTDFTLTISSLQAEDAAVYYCQQYHRLPLSFGGGTKVEIK	1.65	3/3
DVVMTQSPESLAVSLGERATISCKSSQCVLYESRNKNSVAWYQQKAGQPPKLLIYWASTRESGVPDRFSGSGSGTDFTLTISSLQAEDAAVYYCQQYHRLPLSFGGGTKVEIK	2.08	3/3
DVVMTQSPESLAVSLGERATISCKSSQNVLYESRNKNSVAWYQQKAGQPPKLLIYWASTRESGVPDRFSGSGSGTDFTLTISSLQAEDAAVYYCQQYHRLPLSFGGGTKVEIK	3.86	2/3
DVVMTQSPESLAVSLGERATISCKSSQVVLYESRNKNSVAWYQQKAGQPPKLLIYWASTRESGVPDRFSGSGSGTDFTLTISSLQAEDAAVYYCQQYHRLPLSFGGGTKVEIK	1.84	3/3

For reference, 2 entries of the list once more:

VL	mean, log10 nM	replicates with signal
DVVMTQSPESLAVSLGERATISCKSSQNVLYESRNKNSVAWYQQKAGQPPKLLIYWASTRESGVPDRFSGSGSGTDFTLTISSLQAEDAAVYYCQQYHRLPLSFGGGTKVEIK	3.86	2/3
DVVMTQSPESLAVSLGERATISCKSSLSVLYESRNKNSVAWYQQKAGQPPKLLIYWASTRESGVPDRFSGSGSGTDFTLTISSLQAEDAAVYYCQQYHRLPLSFGGGTKVEIK	1.06	3/3

Data: MIT Lincoln Laboratory AlphaSeq set, Engelhart et al. 2022, doi:10.1038/s41597-022-01779-4, as distributed in FLAb.